Biological target: CoV-2 RdRp (Severe acute respiratory syndrome coronavirus 2, UniProt P0DTD1)
Format: biochemical, SARS-CoV-2

CNC(=O)c1cc(Oc2ccc(NC(=O)Nc3ccc(Cl)c(C(F)(F)F)c3)cc2)ccn1 [Sorafenib]
inhibition of kinase like activity of CoV-2 RdRp: significantly abrogated

From patent US20220339180A1, “Methods And Compositions For Treating Viral Diseases Using Combination Of Drugs” (priority 2021, published 2022)
